Values quoted from earlier work in patent publication EP4725948A1, “PYRROLO[2,3-D]PYRIMIDIN-4-AMINE DERIVATIVE AND USE THEREOF IN MEDICINE” (Haisco Pharmaceutical Group Co., Ltd., priority 2023, dated 2024).

Conditions: AE frequency, riociguat group, cited from earlier work

Question: With `COC(=O)N(C)c1c(N)nc(-c2nn(Cc3ccccc3F)c3ncccc23)nc1N` [riociguat, Riociguat] as the compound, how does the dyspepsia/gastritis (12-week PATENT-1 study (placebo 8%)) read?
Answer: The dyspepsia/gastritis was 21%.

Question: What about the nausea (12-week PATENT-1 study (placebo 11%)) of the same compound?
Answer: The nausea was 14%.

Question: What about the headache (12-week PATENT-1 study (placebo 18%)) of the same compound?
Answer: The headache was 27%.
